{"source": "patent US12240857B2", "about": "(priority 2017, dated 2025)", "experiment": "in vitro", "settings": "African green monkey"}
{"smiles": "N[C@H]1CC[C@H](NC(=O)C23CC4CC(CO)(C2)CC(c2ccccc2)(C4)C3)CC1", "note": "(stereo partly drawn) [Example A116, trans-N-(4-aminocyclohexyl)-3-(hydroxymethyl)-5-phenyladamantane-1-carboxamide]", "values": [{"measurement": "CC50", "result": "> 100", "unit": "µM"}]}
